Test results: patent US11623919B2, “Heterocyclic P2X7 antagonists” (AXXAM S.P.A., priority 2017, dated 2023)

The chains behind the UniProt entries cited, without tags or fusion partners.
UniProt Q99572, whole entry: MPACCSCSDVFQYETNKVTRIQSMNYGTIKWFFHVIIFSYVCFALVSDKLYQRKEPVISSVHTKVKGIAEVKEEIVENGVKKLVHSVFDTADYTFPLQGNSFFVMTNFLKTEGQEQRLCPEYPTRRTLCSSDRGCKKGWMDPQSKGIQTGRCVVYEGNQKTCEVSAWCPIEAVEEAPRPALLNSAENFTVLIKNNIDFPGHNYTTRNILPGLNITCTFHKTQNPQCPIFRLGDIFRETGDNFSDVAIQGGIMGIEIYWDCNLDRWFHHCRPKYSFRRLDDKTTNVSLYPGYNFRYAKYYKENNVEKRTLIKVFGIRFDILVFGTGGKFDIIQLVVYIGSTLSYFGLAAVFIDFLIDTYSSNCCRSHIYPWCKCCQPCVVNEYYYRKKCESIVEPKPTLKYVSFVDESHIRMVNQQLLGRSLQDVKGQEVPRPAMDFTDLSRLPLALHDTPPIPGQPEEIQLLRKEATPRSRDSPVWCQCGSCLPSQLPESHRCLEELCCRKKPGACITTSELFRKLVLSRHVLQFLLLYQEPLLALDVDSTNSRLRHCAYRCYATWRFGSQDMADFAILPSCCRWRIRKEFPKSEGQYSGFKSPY
UniProt Q9Z1M0, whole entry: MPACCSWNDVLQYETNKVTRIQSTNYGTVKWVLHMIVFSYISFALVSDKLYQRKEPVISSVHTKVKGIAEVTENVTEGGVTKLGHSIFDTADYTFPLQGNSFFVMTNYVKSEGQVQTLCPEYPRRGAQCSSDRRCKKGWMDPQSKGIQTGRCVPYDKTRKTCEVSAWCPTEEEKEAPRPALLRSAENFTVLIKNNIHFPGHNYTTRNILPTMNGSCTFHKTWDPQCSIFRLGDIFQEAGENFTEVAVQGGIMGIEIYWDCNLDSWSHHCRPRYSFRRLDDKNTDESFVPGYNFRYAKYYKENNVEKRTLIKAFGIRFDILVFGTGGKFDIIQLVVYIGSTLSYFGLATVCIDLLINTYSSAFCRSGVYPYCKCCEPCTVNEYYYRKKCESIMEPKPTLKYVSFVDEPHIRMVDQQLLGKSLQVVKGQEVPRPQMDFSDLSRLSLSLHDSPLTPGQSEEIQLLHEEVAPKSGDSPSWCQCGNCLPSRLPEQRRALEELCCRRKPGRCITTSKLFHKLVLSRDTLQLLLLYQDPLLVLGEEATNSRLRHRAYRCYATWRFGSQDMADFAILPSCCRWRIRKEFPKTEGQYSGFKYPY
UniProt Q64663, whole entry: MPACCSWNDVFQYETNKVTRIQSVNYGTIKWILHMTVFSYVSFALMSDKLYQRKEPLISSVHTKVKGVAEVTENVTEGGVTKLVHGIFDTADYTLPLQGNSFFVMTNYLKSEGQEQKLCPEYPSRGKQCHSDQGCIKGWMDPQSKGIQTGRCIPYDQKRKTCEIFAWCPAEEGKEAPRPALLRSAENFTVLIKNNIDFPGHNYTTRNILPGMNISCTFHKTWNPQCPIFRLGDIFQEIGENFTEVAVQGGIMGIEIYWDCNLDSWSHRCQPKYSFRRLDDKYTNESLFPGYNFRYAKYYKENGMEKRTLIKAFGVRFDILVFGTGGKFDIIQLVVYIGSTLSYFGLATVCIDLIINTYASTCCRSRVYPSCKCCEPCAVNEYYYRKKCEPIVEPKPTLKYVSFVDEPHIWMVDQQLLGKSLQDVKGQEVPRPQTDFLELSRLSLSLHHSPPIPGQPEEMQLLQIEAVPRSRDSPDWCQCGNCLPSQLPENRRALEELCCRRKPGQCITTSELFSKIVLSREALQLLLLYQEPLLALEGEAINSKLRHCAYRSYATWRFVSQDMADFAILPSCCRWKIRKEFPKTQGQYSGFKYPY

Key:
Assay in all cases: Screen Quest Fluo-8 No Wash Calcium Assay (Bz-ATP evoked Ca2+ influx, FLIPR)
P2X7 receptor [1] = biological target: P2X7 receptor (Homo sapiens, UniProt Q99572); details: read-out: hP2X7 (IC50; nM); hP2X7; HEK-293 cells stably transfected with P2X7 receptor, Bz-ATP at EC80, Fluo-8 NW; potency ranges A-D
P2X7 receptor [2] = biological target: P2X7 receptor (Mus musculus, UniProt Q9Z1M0); details: read-out: mP2X7 (IC50; nM); mP2X7; HEK-293 cells stably transfected with P2X7 receptor, Bz-ATP at EC80, Fluo-8 NW; potency ranges A-D
P2X7 receptor [3] = biological target: P2X7 receptor (Rattus norvegicus, UniProt Q64663); details: read-out: rP2X7 (IC50; nM); rP2X7; HEK-293 cells stably transfected with P2X7 receptor, Bz-ATP at EC80, Fluo-8 NW; potency ranges A-D

Measured: IC50

O=c1snc(CC2CCC(F)(F)CC2)n1Cc1ccc(F)cc1
1000 to 10000 nM: all assays above
